Only a part is listed here, and it is no random draw. Calls of active or inactive are those of the source.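 How the source made its calls: active means inhibition above a per-plate cutoff, the plate's mean sample inhibition plus 3 SD (cut at about 24% in these data); inactive means the rest.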

A short description of this experiment: calcium signal blockers in parental CHO-K1 cells – cell-based, Fluo-8 calcium fluorescence, full deck, 1536-well, counter-screen for M1 antagonist project, primary screen (AID 602250).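 Further: 0% = DMSO plus EC80 ATP and 100% = DMSO alone without ATP.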 Particulars: ATP-induced calcium, Fluo-8 fluorescence, at 3 µM, hits give high values.
Regarding `O=P1(Nc2nc3ccc(Cl)cc3s2)COc2ccccc2O1` (stereo not drawn), the inhibition was inactive: -11.9%.

On to `CCOC(=O)c1ccc(NC(=O)C(C)(CCl)SC)cc1` (stereo not drawn), for which the inhibition is inactive: -13.2%.

With `O=C(OC1CN2CCC1CC2)C12CC3CC(CC(C3)C1)C2` (stereo not drawn), the inhibition was inactive: -8.38%.

(Values after PubChem BioAssay AID602250 (The Scripps Research Institute Molecular Screening Center, 2012).)
